The structures appear in SMILES notation. The list shows a part of the results, in another mix than the full data. Results filed as inconclusive are left out. Activity calls are given as the source filed them. Calls come from the whole dose curve; as a rule, active = well fitted activation curve with a large enough effect; inconclusive = small, poorly fitted or top-dose-only effect; inactive = flat fitted curve, though single readings scatter.

Amino acid sequences for entries named in this document (tags omitted).
UniProt P14416, whole entry, looked up: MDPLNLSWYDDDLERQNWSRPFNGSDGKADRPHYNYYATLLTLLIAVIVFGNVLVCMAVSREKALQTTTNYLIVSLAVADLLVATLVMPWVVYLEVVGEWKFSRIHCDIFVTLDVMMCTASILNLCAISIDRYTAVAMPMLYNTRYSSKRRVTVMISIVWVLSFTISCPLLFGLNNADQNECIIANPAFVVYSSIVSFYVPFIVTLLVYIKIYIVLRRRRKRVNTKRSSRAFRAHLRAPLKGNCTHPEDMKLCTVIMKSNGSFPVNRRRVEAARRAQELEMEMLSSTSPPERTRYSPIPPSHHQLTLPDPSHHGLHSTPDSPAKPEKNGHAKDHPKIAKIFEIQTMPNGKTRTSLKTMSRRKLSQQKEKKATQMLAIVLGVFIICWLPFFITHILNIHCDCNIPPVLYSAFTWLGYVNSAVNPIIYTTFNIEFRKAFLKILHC

The assay has as its target D(2) dopamine receptor (Homo sapiens) (UniProt P14416). Nature of the assay: qHTS of D3 Dopamine Receptor Agonist: D2 Dopamine Receptor B-arrestin Agonist Counterscreen. Note: % of control where 0% means no effect; nearly all actives have a fitted effect of over 70% in size. The conditions noted are these: DiscoveRx PathHunter D2 beta-arrestin, luminescence, 90 min, percent relative to full dopamine signal; at 76.9 µM (top of the series). From the text:
D3 DARs represent a very important target for the treatment of several neuropsychiatric disorders. Indeed, one of the most promising therapeutic applications for the D3 DAR is in the area of addiction and related disorders. […] These findings have been observed with a number of addictive substances including cocaine, amphetamine, nicotine, and alcohol. […] Increased D3 DAR activity can thus lead to neuroprotective and neurorestorative actions in the CNS. […] This assay is used to profile the activity of the identified D3 dopamine receptor agonist against the D2 dopamine receptor. Greater than 10% of the maximum dopamine agonist response is desired for this assay. NIH Molecular Libraries Probe Production Centers Network [MLPCN] NIH Chemical Genomics Center [NCGC] MLPCN Grant: NS064831 Assay Submitter (PI): David Sibley
DiscoveRx D2 cells were thawed from frozen stock and seeded at 2,100 cells/ 3 uL/well media (DiscoveRx Plating Reagent 2) with MultiDrop Combi dispenser (Thermo Scientific, Logan, UT) onto white tissue culture treated 1536-well Aurora plates (Brooks Automation, Chelmsford, MA) and allowed to attach overnight at 37 deg C, 5% CO2. Next, 23 nL/well of compound solutions in DMSO were added with a pintool transfer (Kalypsis, San Diego, CA). […] The rest of the plate was dispensed with buffer only, 1 uL/well as well. The cells were stimulated by compounds or dopamine control for 90 minutes at 37 deg C, 5% CO2, after which 1.5 ul/well of DiscoveRx detection reagent was added with BioRAPTR FRD dispenser. The detection reagent was prepared by mixing of Galacton Star Substrate, Emerald II solution and PathHunter buffer (supplied by the assay kit) together at 1:5:19 proportion accordingly just prior to dispensing. The plates were incubated at ambient temperature for 1 hour and then the luminescent signal was read on ViewLux plate reader (PerkinElmer, Waltham, MA).
In general terms: In qHTS, concentration-response curves come from the screen itself.
With `Cc1ccc2nc3c(c(C)c2c1)CC(C(Cl)Cl)S3` (stereo not drawn), the activation is inactive: 23.9%.

With `Cc1c2c(nc3ccccc13)SC(C(Cl)Cl)C2` (stereo not drawn), the activation is inactive: 2.06%.

For the molecule `O=c1c2cc([N+](=O)[O-])ccc2[nH]c2c([N+](=O)[O-])cc([N+](=O)[O-])cc12`, the activation was inactive: -1.44%.

The record behind these values is PubChem BioAssay AID720507 (National Center for Advancing Translational Sciences (NCATS), 2013).
